Values of other authors, collected in patent US10739353B2, “Suppression of cytokine release and cytokine storm” (SignPath Pharma Inc., priority 2014, dated 2020).

Details: neonatal mouse; cited from earlier work

In the case of `CN(C)c1ccc(O)c2c1C[C@H]1C[C@H]3[C@H](N(C)C)C(O)=C(C(N)=O)C(=O)[C@@]3(O)C(O)=C1C2=O` [minocycline], the ischemic brain injury is given as “increased ischemic brain injury”.
